Yeast mating assay 1: variants of the scFv Ab-14

Reference: Engelhart et al. 2022, doi:10.1038/s41597-022-01779-4. File: FLAb, binding data.

Target peptide (SARS-CoV-2 spike, HR2 region): PDVDLGDISGINAS

Ab-14 is the parent antibody, in scFv form: VH, then a 15-residue (Gly4Ser)3 linker, then VL. The heavy chain is unchanged in all variants.
VH: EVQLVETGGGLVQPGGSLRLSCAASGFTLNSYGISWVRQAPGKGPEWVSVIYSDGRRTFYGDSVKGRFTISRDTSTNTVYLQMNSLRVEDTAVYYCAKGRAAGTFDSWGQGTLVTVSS
VL: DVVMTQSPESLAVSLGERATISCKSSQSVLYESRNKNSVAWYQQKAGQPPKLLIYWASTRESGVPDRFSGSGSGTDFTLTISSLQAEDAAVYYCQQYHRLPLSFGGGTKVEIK

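The parent was found by panning a naive human phage display library on the peptide. Variants in AAYL50 differ from the parent at up to three CDR positions; double and triple changes were sampled at random. In AlphaSeq, yeast of one mating type display the scFv and yeast of the other type display the target. Binding brings cells together so that they mate, and sequencing counts the barcode pairs among the diploids. Scores were corrected for input abundance and mapped to Kd with protein pairs of known affinity run in the same pool. There are three technical replicates.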

Changes read parent residue, position, new residue, counted from the first residue of the VL shown. This list gathers variants with a substitution at S58 (VL, numbered from residue 1). Scale: log10 of Kd in nM, estimated from mating counts; low values are strong binders. A mean of the replicates is given; it leaves out those without a signal. "nd" means that the variant was in the library but no mating with the target was seen in any replicate; the authors take this as a sign of poor binding, and no number exists. Empty control strains, which show no peptide, gave a signal in 18% of pairings with library AAYL50; the median was 4.19 and 95% of these signals were weaker than 2.99. No background was subtracted. Also given: how often the same scFv was detected with the empty control strains.

K24G+S58L+P101G: nd (0 of 3 replicates; controls 1 of 9).
A40L+S58Y+S62Y: nd (0 of 3 replicates; controls 1 of 9).
S58M+S103R: 3.71 (2 of 3 replicates; controls 3 of 9).
K36C+S58M+H98L: 1.83 (3 of 3 replicates; controls 4 of 9).
S58P+R60P+L100I: 3.64 (1 of 3 replicates; controls 4 of 9).
R34A+S58G+L102I: 1.33 (3 of 3 replicates; controls 1 of 9).
V29I+N35R+S58Y: 3.18 (3 of 3 replicates; controls 0 of 9).
S58E: 1.03 (3 of 3 replicates; controls 0 of 9).
Y31H+A57Q+S58E: 1.37 (3 of 3 replicates; controls 0 of 9).
S26K+S58W+Q96Y: nd (0 of 3 replicates; controls 1 of 9).
S58A+R60Q+E61L: nd (0 of 3 replicates; controls 0 of 9).
V29P+S58W+R60P: 4.73 (3 of 3 replicates; controls 4 of 9).
Q27I+S58G: 1.64 (3 of 3 replicates; controls 2 of 9).
E32W+S58F: nd (0 of 3 replicates; controls 0 of 9).
A40E+S58Y+Q95V: 4.59 (1 of 3 replicates; controls 1 of 9).
S33C+K36A+S58V: 4.74 (1 of 3 replicates; controls 4 of 9).
S58Y+L100R: nd (0 of 3 replicates; controls 0 of 9).
L30W+S58A+Q96K: 4.38 (3 of 3 replicates; controls 3 of 9).
N35S+S58A+Q95W: 3.45 (3 of 3 replicates; controls 4 of 9).
K36L+S58M+Q96G: 2.47 (3 of 3 replicates; controls 2 of 9).
S58C+Q95M+Y97F: 3.24 (3 of 3 replicates; controls 2 of 9).
N35T+S58P+S103Y: 4.60 (2 of 3 replicates; controls 5 of 9).
S58G+S62C+Q96S: 2.95 (2 of 3 replicates; controls 1 of 9).
Q27W+A57Q+S58Q: 2.93 (2 of 3 replicates; controls 1 of 9).
S58T+Y97N+H98D: nd (0 of 3 replicates; controls 0 of 9).
R34D+S38M+S58R: 2.06 (3 of 3 replicates; controls 2 of 9).
Q27D+S58P+R60S: 4.03 (1 of 3 replicates; controls 3 of 9).
S33F+S58E+Y97P: 3.55 (3 of 3 replicates; controls 2 of 9).
S58I+L102S: nd (0 of 3 replicates; controls 0 of 9).
S33Q+S58V+Q96G: 4.76 (1 of 3 replicates; controls 1 of 9).
Y31H+S58W: 1.86 (3 of 3 replicates; controls 0 of 9).
S26T+S58D+H98A: 1.70 (3 of 3 replicates; controls 1 of 9).
N37A+S58K+R99Y: nd (0 of 3 replicates; controls 2 of 9).
S58E+S62G: 2.44 (3 of 3 replicates; controls 0 of 9).
K36A+S58P+T59G: nd (0 of 3 replicates; controls 0 of 9).
S26K+V29C+S58K: nd (0 of 3 replicates; controls 1 of 9).
Q27Y+S58G+R99S: nd (0 of 3 replicates; controls 0 of 9).

In this assay the parent's reference entry averaged 0.65; its copy inside this library read 1.68.